We go through two compounds from ChEMBL document CHEMBL3244164, “Synthesis and analgesic activity of 1,3-dihydro-3-(substituted phenyl)imidazo[4,5-b]pyridin-2-ones and 3-(substituted phenyl)-1,2,3-triazolo[4,5-b]pyridines” (J Med Chem, 1978).

The assay has as its system Rattus norvegicus. Nature of the assay: Analgesic activity in Sprague-Dawley rat brewer's yeast treated foot assessed as response threshold at 32 mg/kg, po.

In the case of `O=C(Cn1c(=O)n(-c2ccc3c(c2)OCO3)c2ncccc21)N1CCOCC1`, the Activity is under 25 mm.

Turning to `CCN(CC)CCn1c(=O)n(-c2ccc3c(c2)OCO3)c2ncccc21`, the Activity was under 25 mm.
